Where two headings read alike, the source gives them in different places.
Biological target: human Nav1.7 (Homo sapiens, UniProt Q15858)
Test: SyncroPatch 768PE automated patch clamp, two-state voltage protocol, CHO-Nav1.7 cells
Details: closed state (-120 mV)
[1] = IC50 Single Dose Closed State, single concentration per well method
[2] = IC50 Six Dose Closed State, multiple (six) concentrations per well method

By UniProt entry, the sequences of proteins in these tests, tags left out.
UniProt Q15858, whole entry: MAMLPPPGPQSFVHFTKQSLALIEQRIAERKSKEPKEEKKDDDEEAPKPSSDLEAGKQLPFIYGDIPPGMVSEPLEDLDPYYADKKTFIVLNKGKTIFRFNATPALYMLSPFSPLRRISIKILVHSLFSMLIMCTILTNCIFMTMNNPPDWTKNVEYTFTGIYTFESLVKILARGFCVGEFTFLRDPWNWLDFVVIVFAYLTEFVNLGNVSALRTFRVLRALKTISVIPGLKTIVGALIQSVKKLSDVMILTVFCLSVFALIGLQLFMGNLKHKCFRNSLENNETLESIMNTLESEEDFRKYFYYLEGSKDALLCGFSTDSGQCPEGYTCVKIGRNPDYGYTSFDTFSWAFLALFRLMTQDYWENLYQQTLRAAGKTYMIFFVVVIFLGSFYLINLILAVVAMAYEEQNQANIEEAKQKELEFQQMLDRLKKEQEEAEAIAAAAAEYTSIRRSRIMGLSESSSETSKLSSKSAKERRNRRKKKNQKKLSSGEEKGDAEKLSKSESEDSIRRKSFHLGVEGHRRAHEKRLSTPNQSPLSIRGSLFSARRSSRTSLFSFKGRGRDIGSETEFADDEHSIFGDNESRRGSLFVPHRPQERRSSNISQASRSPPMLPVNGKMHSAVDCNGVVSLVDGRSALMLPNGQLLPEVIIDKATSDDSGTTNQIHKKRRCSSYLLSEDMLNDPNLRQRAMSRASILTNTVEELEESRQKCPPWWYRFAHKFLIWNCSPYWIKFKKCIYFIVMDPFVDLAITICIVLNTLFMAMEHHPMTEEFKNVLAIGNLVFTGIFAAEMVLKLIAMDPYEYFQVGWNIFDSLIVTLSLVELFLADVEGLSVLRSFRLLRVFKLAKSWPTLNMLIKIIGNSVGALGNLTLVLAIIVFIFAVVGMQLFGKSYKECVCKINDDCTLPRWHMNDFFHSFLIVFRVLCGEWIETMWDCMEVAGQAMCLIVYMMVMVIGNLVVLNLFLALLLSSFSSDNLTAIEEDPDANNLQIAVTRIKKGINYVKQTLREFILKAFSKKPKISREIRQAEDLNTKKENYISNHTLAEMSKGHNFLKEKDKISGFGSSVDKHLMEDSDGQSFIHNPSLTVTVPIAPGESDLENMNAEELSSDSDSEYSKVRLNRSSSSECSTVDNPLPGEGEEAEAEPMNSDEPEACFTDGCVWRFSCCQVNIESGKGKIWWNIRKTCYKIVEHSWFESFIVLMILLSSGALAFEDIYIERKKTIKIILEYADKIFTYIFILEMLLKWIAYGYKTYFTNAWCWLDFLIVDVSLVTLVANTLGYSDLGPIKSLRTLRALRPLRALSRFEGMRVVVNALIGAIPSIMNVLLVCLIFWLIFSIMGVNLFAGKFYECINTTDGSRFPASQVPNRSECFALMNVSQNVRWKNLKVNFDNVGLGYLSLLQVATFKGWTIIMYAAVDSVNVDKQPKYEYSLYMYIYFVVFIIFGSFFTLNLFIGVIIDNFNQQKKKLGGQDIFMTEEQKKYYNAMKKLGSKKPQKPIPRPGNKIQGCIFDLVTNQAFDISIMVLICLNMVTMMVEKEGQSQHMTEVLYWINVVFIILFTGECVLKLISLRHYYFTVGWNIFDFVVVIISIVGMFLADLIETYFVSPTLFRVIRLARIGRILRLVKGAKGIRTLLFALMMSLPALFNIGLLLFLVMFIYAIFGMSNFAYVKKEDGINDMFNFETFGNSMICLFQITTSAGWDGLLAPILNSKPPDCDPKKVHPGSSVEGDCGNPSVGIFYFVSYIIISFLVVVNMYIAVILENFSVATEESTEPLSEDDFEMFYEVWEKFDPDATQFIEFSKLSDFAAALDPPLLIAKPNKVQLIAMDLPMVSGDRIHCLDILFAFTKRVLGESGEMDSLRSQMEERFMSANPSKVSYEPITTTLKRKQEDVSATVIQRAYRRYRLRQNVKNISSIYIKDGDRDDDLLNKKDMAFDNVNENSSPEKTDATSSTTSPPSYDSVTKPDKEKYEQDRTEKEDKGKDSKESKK

| IC50 (read-out: IC50 Single Dose Closed State, single concentration per well method) | IC50 (read-out: IC50 Six Dose Closed State, multiple (six) concentrations per well method) | SMILES | IC50 [1] | IC50 [2] |
| --- | --- | --- | --- | --- |
|  |  | O=C(NCC1CCCCN1)c1cc(OCC(F)(F)F)ccc1OCC(F)(F)F (stereo not drawn) [Flecainide] | 6.69 µM | 8.6 µM |
| 0.007 µM | 0.0051 µM | CCN1CC(n2nccc2-c2cc(C(F)(F)F)ccc2Oc2ccc(S(=O)(=O)Nc3ncns3)cc2C#N)C1 [GX-936] |  |  |
|  |  | Nc1nnc(-c2cccc(Cl)c2Cl)c(N)n1 [Lamotrigine] | 312 µM | 243 µM |
